Laboratory results published in US20230173092A1, “ANTIBODY-DRUG CONJUGATES” (priority 2020, published 2023).

How the values were obtained:
[1] = test system: NCI-N87 human gastric cancer CDX model; experiment: In vivo anti-tumour efficacy study in subcutaneous NCI-N87 CDX model in female BALB/c Nude mice; parameters: species or system Mus musculus; settings: 3 mg/kg IV single dose
Protocol: The objective of this study was to evaluate the in vivo anti-tumour efficacy of the MMAE ADC of Example 3 in the subcutaneous NCI-N87 human gastric cancer CDX model in female BALB/c Nude mice.
The NCI-N87 tumor cells (ATCC, Manassas, Va., cat #CRL-5822) were maintained in vitro as a monolayer culture in RPMI-1640 medium supplemented with 10% fetal bovine serum, 1% Antibiotic-Antimycotic, at 37° C. in an atmosphere of 5% CO2 in air. The tumour cells were routinely subcultured twice weekly by trypsin-EDTA treatment. The cells growing in an exponential growth phase were harvested and counted for tumour inoculation.
Each mouse for efficacy study was inoculated subcutaneously at the right flank with NCI-N87 tumour cells (10×10^6) in 0.2 mL of PBS supplemented with Matrigel (1:1) for tumour development. Treatments were started on day 6 after tumour inoculation when the average tumour size reached approximately 198 mm^3. […]
All the procedures related to animal handling, care and the treatment in the study were performed according to the guidelines approved by the Institutional Animal Care and Use Committee (IACUC) of the CRO following the guidance of the Association for Assessment and Accreditation of Laboratory Animal Care (AAALAC). At the time of routine monitoring, the animals were daily checked for any effects of tumour growth and treatments on normal behaviour such as mobility, food and water consumption (by looking only), body weight gain/loss (body weights were measured twice weekly), eye/hair matting and any other abnormal effect as stated in the protocol. Death and observed clinical signs were recorded on the basis of the numbers of animals within each subset.
The major endpoint was to see if the tumour growth could be delayed or mice could be cured. Tumour size was measured twice weekly in two dimensions using a calliper, and the volume was expressed in mm^3 using the formula: V=0.5 a×b^2 where a and b are the long and short diameters of the tumour, respectively. […]

[2] = test system: Her2High SK-BR-3 (human breast adenocarcinoma) cells; experiment: CellTiter-Glo luminescence viability assay with MMAE ADC, SK-BR-3; format: cell-based; settings: SK-BR-3 (Her2 High), 96 hours, n = 3
Protocol: (§1) The CellTiter-Glo® luminescence viability assay was used to measure the inhibitory effect of the MMAE ADC prepared in Example 3 on cell growth. Any reduction in cell proliferation or metabolic activity is indicative of the cytotoxic and/or cytostatic properties of a compound.
(§2) Her2^High SK-BR-3 (human breast adenocarcinoma, ATCC® HTB-30, Manassas, Va., United States) were cultured in McCoy's 5A medium supplemented with 200 U/mL penicillin, 200m/mL streptomycin and 20% heat-inactivated fetal bovine serum. Her2^Low JIMT-1 (human breast carcinoma, ACC589, DSMZ, Braunschweig, Germany) were cultured in DMEM GlutaMax® medium supplemented with 200 U/mL penicillin, 200 μg/mL streptomycin and 10% heat-inactivated fetal bovine serum. […]
(§3) After 96 hours in the presence of ADCs or controls, viability was detected using the CellTiterGlo® luminescence assay. […] The plates were then mixed for 3 minutes at 300 rpm to assist cell lysis and incubated for a further 20 minutes at room temperature to stabilise the luminescence signal. Luminescence was recorded using a SpectraMax i3x plate reader with a default integration time of 0.5 s/well.
(§4) Data were then analysed using a four-parameter non-linear regression model. Viability was expressed as a percentage of untreated cells, 100% viability corresponding to the average luminescence of wells containing cells treated with complete medium only. […]

[3] = test system: Her2Negative NCI-H520 (human lung squamous cell carcinoma) cells; experiment: CellTiter-Glo luminescence viability assay with MMAE ADC, NCI-H520; format: cell-based; settings: NCI-H520 (Her2 Negative), 96 hours, n = 3
Protocol: as §1, §2, §3, §4

[4] = test system: SK-BR-3 (HER2 High) cells; experiment: CellTiter-Glo luminescence viability assay with SN-38 ADCs, SK-BR-3, limited and continuous exposure; format: cell-based, human; settings: n = 3
Protocol: The CellTiter-Glo® luminescence viability assay (Promega, Southampton, UK) was used to measure the inhibitory effect of the SN-38 ADCs on cell growth. Any reduction in cell proliferation or metabolic activity is indicative of the cytotoxic and/or cytostatic properties of a compound. SK-BR-3 cells (human breast adenocarcinoma, ATCC HTB-30) were cultured in McCoys 5A media (ThermoFisher Scientific, Loughborough, UK) supplemented with 200 U/mL penicillin, 200 μg/mL streptomycin and 20% heat-inactivated fetal bovine serum (Cytiva Hyclone™, ThermoFisher Scientific, Loughborough, UK). SK-BR-3 (HER2 High) cells were seeded in 384-well plates at a density of 1.25×10^3 cells in 20 μL growth medium. […]
as §3, with “Viability” for “After 96 hours in the presence of ADCs or controls, viability”, “CellTiter-Glo®” for “CellTiterGlo®”, “reader (Molecular Devices, Wokingham, UK),” for “reader”, “s/well. […]” for “s/well.”
as §4, with “was” for “were”, “analysed on GraphPad Prism version 8 (GraphPad Software, La Jolla, Calif.)” for “analysed”

Substance	mean tumour volume on PG-D42 [1] [mm^3]	T/C ([1]; PG-D42) [%]	TGI ([1]; PG-D42) [%]	IC50 [2] [nM]	IC50 [3] [nM]	IC50 ([4]; continuous exposure 96 h, read-out: SK-BR-3 IC50 (nM) Mean (±St.Dev.) 96 h exposure) [nM]	IC50 ([4]; limited exposure 9 h, washed, further 96 hours, read-out: SK-BR-3 IC50 (nM) Mean (±St.Dev.) 9 h exposure) [nM]
Kadcyla ®	574	29.37	78.58	0.047 ± 0.021	37.3 ± 16.1		
Trastuzumab				0.141 ± 0.138	> 1000		
Trastuzumab-CL2A-SN-38						0.1 ± 0.01	5.56 ± 2.91

Like-named read-outs stand apart in the source and are kept apart here.
